Measurements as given in patent publication US20210030761A1, “TREATMENT AND PREVENTION OF ALPHA HERPES VIRUS INFECTION” (THE REGENTS OF THE UNIVERSITY OF COLORADO, a body corporate, priority 2018, published 2021).

How the values were obtained:
Type in all cases: cell-based, varicella zoster virus
VZV [1] = assay: Light microscopy for cytopathic effect in VZV-infected spinal astrocytes; settings: 48 and 72 HPI; 10 μM aprepitant from 12 HPI; versus vehicle-only
Description: Cell Culture and Infection: Primary human spinal astrocytes (HA-sp; Sciencell, Carlsbad, Calif.) were seeded at 5,000 cells/cm' in a basal astrocyte medium containing 2% fetal bovine serum (FBS), 1% astrocyte growth supplement, and 1% 100× penicillin-streptomycin (Sciencell). After 24 hours, medium was changed to basal astrocyte medium containing 0.1% FBS and 1% 100× penicillin-streptomycin that was replenished every 72 hours for 7 days to establish quiescence. On day 7, spinal astrocytes were co-cultivated with VZV-infected spinal astrocytes (40 pfu/mL) or mock-infected spinal astrocytes. […] Light microscopy images to observe a cytopathic effect were obtained at 12, 24, 48 and 72 HPI followed by DNA extraction and PCR quantification of VZV DNA as described below. Substance P ELISA: Substance P was quantitated from mock- and VZV-infected HA-sp using a colorimetric competitive enzyme immunoassay kit according to the manufacturer's instructions (Enzo, Farmingdale, N.Y.). The sensitivity range was 9.76-10,000 pg/mL, as determined by controls run on the same assay as samples. Immunofluorescence Assay: HA-sp were propagated and treated as described above in an ibidi 24-well μ-Plate (ibidi, Martinsried, Germany). […] GFAP and NK-1R were detected using a 1:500 dilution of chicken anti-GFAP (Abcam) and a 1:100 dilution of rabbit anti-NK-1R (Novus Biologicals LLC, Littleton, Colo.), respectively. […]

VZV [2] = assay: Total VZV DNA in primary adult human pancreatic islet cells; settings: 7.5 μM, 6 days post-infection, versus vehicle
Excerpt: (§1) At 12, 24, 48, and 72 HPI, cells were visualized by light microscopy in the untreated and treated cultures and harvested for DNA.

VZV [3] = assay: Total VZV DNA in primary human brain vascular adventitial fibroblasts; settings: 5 μM and 7.5 μM, 72 hours post-infection
Excerpt: as §1

VZV [4] = assay: Total VZV DNA in adult primary human keratocytes; settings: 7.5 μM, versus vehicle
Excerpt: as §1

VZV [5] = assay: Total VZV DNA in primary human microglia; settings: 7.5 μM, versus vehicle
Excerpt: as §1

VZV [6] = assay: Total VZV DNA in adult primary human perineurial cells (HPNCs); settings: 72 HPI
Excerpt: as §1

VZV [7] = assay: Total VZV DNA in Guinea Pig Lung Fibroblasts; settings: 7.5 μM, 72 hours post-infection, versus vehicle

Compound: C[C@@H](O[C@H]1OCCN(Cc2n[nH]c(=O)[nH]2)[C@H]1c1ccc(F)cc1)c1cc(C(F)(F)F)cc(C(F)(F)F)c1 [aprepitant]
- cytopathic effect (light microscopy) (VZV [1]): not in aprepitant-treated samples
- total VZV DNA (VZV [2]): significantly reduced total VZV DNA
- total VZV DNA (VZV [3]): dose-dependent reduction in total VZV DNA
- total VZV DNA (VZV [4]; 4 days post-infection): significantly reduced total VZV DNA
- total VZV DNA (VZV [4]; 7 days post-infection): significantly reduced total VZV DNA
- total VZV DNA (VZV [5]): significantly reduced total VZV DNA
- total VZV DNA (VZV [6]; treated at 24 HPI): significantly reduced total VZV DNA
- total VZV DNA (VZV [6]; treated at time of infection): significantly reduced total VZV DNA
- total VZV DNA (VZV [7]): significantly reduced total VZV DNA
